The series is described as follows: pH of aqueous solution of solubilizing compound mixed with oleic acid. Format: physicochemical. Particulars: solubilizing compound in water with 0.833 mol equivalents of oleic acid.

As for “Poly-L-arginine HCl [Poly-L-arginine HCl (70.000-150.000 MW)]”, the pH amounted to 11.37.
